# Test system: NCI-N87 gastric cancer xenograft
# Experiment: In vivo efficacy study in NCI-N87 xenograft model
# Design: species or system mice
# Conditions: for TGI [%] at 33 day: day 33
# Description: The ADC non-binding control was an anti-CD19 ADC (DAR 2.0) composed of the same linker-drug combination as ADC-3.
substance,measurement,setting,value
Enhertu,time after which tumour regrowth was observed,1 mg/kg (53 nmol/kg),> 28 days
same,TGI [%] at 33 day,single intravenous dose 0.2 mg/kg,4%
same,TGI [%] at 33 day,single intravenous dose 0.5 mg/kg,46%

# — patent US20250213711A1, “ANTI-CANAG ANTIBODY CONJUGATE” (IKSUDA THERAPEUTICS LIMITED, priority 2022, published 2025)
